Experimental data as given in article PMC8016950 (2021).

Protein sequences, listed by entry. Tags and fused reporters are not part of them. Lines headed by an entry give the natural chain unless they say otherwise; changes in a name come on top.
UniProt P17931: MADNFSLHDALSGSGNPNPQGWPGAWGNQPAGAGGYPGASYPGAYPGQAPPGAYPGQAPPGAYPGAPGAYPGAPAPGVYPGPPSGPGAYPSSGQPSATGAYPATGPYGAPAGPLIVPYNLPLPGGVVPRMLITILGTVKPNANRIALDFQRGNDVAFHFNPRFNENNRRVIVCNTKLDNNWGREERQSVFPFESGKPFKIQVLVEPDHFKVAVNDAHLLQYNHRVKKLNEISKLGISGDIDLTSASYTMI

Assays:
[1] = biological target: T1, full length human galectin-3 (hGal3), Cys173 mutated to Thr (human, UniProt P17931 1-250, Cys173 mutated to Thr); experiment: SPR
[2] = biological target: T1, full length human galectin-3 (hGal3), …; experiment: ELISA

Row | Kd [1] [nM] | Kd [2] [nM] | Binder
1 | 0.24 | – | GaletuzuFab-PAS200-Cy7 (Fab, V domains shown, Cy7 coupled via maleimide to the C-terminal Cys) VH: QIQLVQSGAEVKKPGESLKISCKVSGYTFTDYAIHWVRQMPGKGLKWMGWINTYTGKPIYADDFKGQVIISLDKSINTAYLQWSSLKASDTAIYYCARGTMMASLDYWGQGTTVTVSS VL: DVVMTQSPSSLSASVGDRVTITCKSSQSLVHSDGKTYLSWIQQKPGKAPKGLIYLVSKLDSGVPSRFSGSGSETDFTLTISSLQPEDSATYYCWQATHFPLTFGPGTKVDIR
2 | 0.26 | – | GaletuzuFab-PAS200-Dfo (Fab, V domains shown, deferoxamine (Dfo) coupled via maleimide to the C-terminal Cys) VH: QIQLVQSGAEVKKPGESLKISCKVSGYTFTDYAIHWVRQMPGKGLKWMGWINTYTGKPIYADDFKGQVIISLDKSINTAYLQWSSLKASDTAIYYCARGTMMASLDYWGQGTTVTVSS VL: DVVMTQSPSSLSASVGDRVTITCKSSQSLVHSDGKTYLSWIQQKPGKAPKGLIYLVSKLDSGVPSRFSGSGSETDFTLTISSLQPEDSATYYCWQATHFPLTFGPGTKVDIR
3 | – | 1.5 | GaletuzuFab-PAS200-Cys (Fab, V domains shown) VH: QIQLVQSGAEVKKPGESLKISCKVSGYTFTDYAIHWVRQMPGKGLKWMGWINTYTGKPIYADDFKGQVIISLDKSINTAYLQWSSLKASDTAIYYCARGTMMASLDYWGQGTTVTVSS VL: DVVMTQSPSSLSASVGDRVTITCKSSQSLVHSDGKTYLSWIQQKPGKAPKGLIYLVSKLDSGVPSRFSGSGSETDFTLTISSLQPEDSATYYCWQATHFPLTFGPGTKVDIR
